## scFv variants of Ab-14 (light chain) against a SARS-CoV-2 spike peptide

Reference: Engelhart et al. 2022, doi:10.1038/s41597-022-01779-4. File: FLAb, binding data.

Binding partner: SARS-CoV-2 spike HR2 peptide, sequence PDVDLGDISGINAS.

Ab-14 is the parent antibody, in scFv form: VH, then a (GGGGS)3 linker, then VL. The heavy chain is unchanged in all variants.
VH: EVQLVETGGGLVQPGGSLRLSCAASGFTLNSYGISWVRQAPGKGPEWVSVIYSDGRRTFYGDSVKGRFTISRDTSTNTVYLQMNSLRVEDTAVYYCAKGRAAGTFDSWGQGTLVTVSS
VL: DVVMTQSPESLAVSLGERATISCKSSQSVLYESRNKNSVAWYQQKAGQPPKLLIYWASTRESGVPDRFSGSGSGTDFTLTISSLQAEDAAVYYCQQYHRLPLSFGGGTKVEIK

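The starting antibody came from a phage panning campaign against this peptide. AAYL50 was designed without a model: most single CDR substitutions and a random sample of double and triple ones. The scFvs were displayed on barcoded MATa yeast, the peptide on MATalpha yeast. The frequency of each diploid, read from paired DNA barcodes, reflects how well the two displayed proteins bind. Scores were corrected for input abundance and mapped to Kd with protein pairs of known affinity run in the same pool. There are three technical replicates.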

Each variant is given by its three light chain CDRs, as the data file delimits them; those of the parent are KSSQSVLYESRNKNSVA, WASTRES, QQYHRLPLS.
The read-out is the apparent dissociation constant on a log10 scale (nM): the lower, the stronger.
Where no diploid with the target was found in that replicate, the entry reads "ND": below detection, most likely a poor binder, though not proof of it.
Three control strains display no target. For library AAYL50, 18% of the pairings with them gave a signal, with a median of 4.19 and one signal in twenty below 2.99, so weak values seen in few replicates may be background. The control count says in how many pairings with the empty strains this scFv gave a signal, with their mean in brackets.

| CDR-L1 | CDR-L2 | CDR-L3 | log10 Kd (nM) by replicate | signal with controls |
|---|---|---|---|---|
| KISQSVLYESRFKNSVF | WASTRES | QQYHRLPLS | ND / 3.14 / ND | 3/9 (4.32) |
| KSSQSVLYESRNKNSVA | WAPTRYS | QEYHRLPLS | ND / ND / 3.12 | 0/9 |
| KSSQSYLYESRNKNSVA | WASTRFS | GQYHRLPLS | ND / ND / 2.58 | 3/9 (3.49) |
| KKSQSVLYESRNKNCQA | WASTRES | QQYHRLPLS | ND / 3.71 / 5.66 | 3/9 (3.79) |
| KSGQSVLYSSRHKNSVA | WASTRES | QQYHRLPLS | 2.24 / 2.19 / 2.15 | 3/9 (3.50) |
| KSSQSVLYESRNANSVA | WASTRES | QQYHRLTWS | ND / ND / 4.61 | 2/9 (4.11) |
| KSSQTVLYESRNKNGIA | WASTRES | QQYHRLPLS | ND / ND / ND | 1/9 (2.91) |
| KSSQSFLYESRRKNSVA | WASTRES | QQYHRLPLN | ND / ND / ND | 2/9 (3.83) |
| KSSQSVLYESRNKNSVA | WAYTGES | QQYHRLPKS | ND / ND / ND | 0/9 |
| KSSQSVLRESRNWNSVA | WASTRES | QQYHRLGLS | 3.41 / ND / ND | 1/9 (3.50) |
| PSSQSVLYESPNKNSVA | WASTRES | QQYHRLKLS | ND / ND / 3.62 | 1/9 (3.19) |
| KSSQSVLYEMRNKNSVA | WASTAES | QQYHRLFLS | 1.50 / 1.35 / 1.69 | 0/9 |
| ESIFSVLYESRNKNSVA | WASTRES | QQYHRLPLS | 2.85 / 3.79 / ND | 1/9 (4.71) |
| PSSQSELYESRNKNSVF | WASTRES | QQYHRLPLS | 4.61 / 4.43 / ND | 4/9 (4.33) |
| KSSQSVLYESRNYNSVD | WASTDES | QQYHRLPLS | 4.86 / 4.59 / 4.89 | 4/9 (4.38) |
| KSSSSVLYESRNKVSVA | WASTRES | QQYHRWPLS | 5.76 / ND / 5.66 | 2/9 (3.84) |
| KSSQSVLYESRNKNAEA | PASTRES | QQYHRLPLS | ND / ND / 5.77 | 2/9 (4.52) |
| KSSQSDLYQSRNKNSVA | WASTRES | QQYHRLTLS | 0.71 / 1.03 / 0.93 | 2/9 (4.02) |
| PSSQSVLYESRNKNSVA | WASTRES | QQYHRLPLQ | ND / 4.53 / 3.64 | 3/9 (4.72) |
| KSSQSVLYESRNKNRVV | CASTRES | QQYHRLPLS | ND / 4.44 / 6.36 | 3/9 (5.21) |
| KSSQSVLYESRNKNSVA | WASNHES | QDYHRLPLS | ND / ND / ND | 0/9 |
| KSSQSPLYESRNKNSVA | WASTWES | QQYHRLPLS | ND / ND / ND | 2/9 (3.24) |
| KSYPMVLYESRNKNSVA | WASTRES | QQYHRLPLS | 0.71 / 1.04 / 0.96 | 2/9 (4.31) |
| KSSQSVLYSSRNKNSWA | WASTRFS | QQYHRLPLS | ND / ND / ND | 0/9 |
| KSSQSVLYESRNKNSVA | WYSGRES | QQYHRLPLS | ND / ND / ND | 4/9 (4.05) |
| KSSQSVLYESRNKLSVA | WASTRES | QQYHRLPLS | 2.19 / 1.98 / 2.02 | 5/9 (4.53) |
| KSSQSVLYYSRNKNSVI | WASTRAS | QQYHRLPLS | ND / ND / ND | 0/9 |
| KSSQSVLYESRNKNSVA | QASTRES | QQPHMLPLS | ND / ND / ND | 0/9 |
| KSSQSVLYESRNKNSVA | WASTREA | QQYGRLPLS | 0.44 / 0.62 / 0.65 | 0/9 |
| KSDQSVLYESRNKNSLA | WASTRES | QQYHPLPLS | ND / ND / ND | 1/9 (2.78) |
| KSSQSVPYESRNKNSVA | WYSTRES | QQYHGLPLS | ND / ND / ND | 2/9 (3.73) |
| KSSQSVLEESRNKNSVA | WASTRES | QQSHRAPLS | ND / ND / 3.67 | 1/9 (4.36) |
| KSSQSFLYESRNKCSVA | WASTRES | QQYQRLPLS | 1.68 / 1.79 / 1.41 | 1/9 (4.22) |
| KSSQSVLYESRNKNSVA | WASEDCS | QQYHRLPLS | 5.43 / 4.35 / 3.89 | 6/9 (4.68) |
| KSSQSVLYGSRFKNSVA | WASTPES | QQYHRLPLS | ND / ND / 4.80 | 3/9 (4.68) |
| KSSQSVLYESDNKHSVA | WASTRES | QEYHRLPLS | 1.90 / 2.00 / 2.12 | 5/9 (4.65) |
| KSSQSVLYVSRNKNSVA | WASTRES | LQYHRLRLS | ND / ND / ND | 1/9 (3.25) |
| KSSQSVLYESRGKNSRA | WAFTRES | QQYHRLPLS | ND / 3.87 / ND | 2/9 (3.47) |
| KDSQSVLYESRNKNSVA | WASRRES | EQYHRLPLS | 3.76 / 3.23 / 4.29 | 6/9 (4.80) |
| KSSQSVAYESRNKNSFA | WASTRES | QQYHREPLS | ND / 3.52 / ND | 1/9 (4.19) |
| KSSQSVNYELRNKNSVA | WASTRES | QQYHRCPLS | 1.88 / 1.83 / 1.99 | 0/9 |
| KSSQSVLYESKNKNSVA | WNSERES | QQYHRLPLS | 0.99 / 1.13 / 1.18 | 1/9 (4.17) |
| DSSQSVLYESRNKNSVA | WASTRES | QQYHRLPLS | 1.25 / 1.29 / 1.56 | 4/9 (4.14) |
| KSSQSVLYESRNKNLVA | WASFRES | QQYHNLPLS | ND / ND / ND | 1/9 (2.88) |
| KSSQSVLYESRNKNSNA | DASTRES | GQYHRLPLS | 0.30 / 0.53 / 0.39 | 3/9 (3.88) |